The list shows a part of the results, in another mix than the full data. Active and inactive are the calls of the source.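 Rule for the calls: active = top-ranked compounds by inhibition in the single 10 µM screen, taking a fixed number of the strongest; inactive = the rest, inconclusive results apart.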

In this assay the test system is phosphomevalonate kinase (Streptococcus pneumoniae D39). In words: phosphomevalonate kinase enzyme inhibition – biochemical, mevalonate pathway, pilot trial included, primary screen (AID 539).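 Note: 0% = full reaction with DMSO carrier and 100% = background rate without enzyme reaction.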 The following applies: purified PMK, PK/LDH-coupled NADH absorbance 340 nm; at 10 µM; active compounds read high.
Regarding `COc1ccccc1OP(C)(=O)Nc1ccc(C)cc1` (configuration not stated), the inhibition is inactive: 0%.
For `Cc1ccc(NP(C)(=O)Oc2ccccc2)c(C)c1` (configuration not stated), the inhibition is inactive: 8%.
As to `O=C(OC1CN2CCC1CC2)C12CC3CC(CC(C3)C1)C2` (configuration not stated), the inhibition is inactive: 8%.
As to `COP1(=S)c2c(C)nn(CCC#N)c2N=C(c2ccc(F)cc2)N1C` (configuration not stated), the inhibition is inactive: 11%.
Regarding `O=C(COc1ccccc1)OC1CN2CCC1CC2` (configuration not stated), the inhibition was inactive: 5%.
As to `CP(=O)(NC(=O)Nc1ccccc1)Oc1ccccc1` (configuration not stated), the inhibition is inactive: 0%.
Consider `CCOP(C)(=S)SCC(=O)NC(C)C(=O)O` (configuration not stated), for which the inhibition was inactive: 10%.
Take `CP(=S)(Nn1cnnc1)Oc1ccccc1` (configuration not stated): the inhibition was inactive: 5%.
With `Cc1nn(-c2ccccc2)c2c1P(=O)(N1CCOCC1)N(C)C(c1ccccc1)=N2` (configuration not stated) the figure was inactive: 9%; with `O=P1(Nc2ncccn2)COc2ccccc2OC1`, inactive: 9%; with `Cc1ccc(OCC(=O)OC2CN3CCC2CC3)cc1` (configuration not stated), inactive: 3%.
With `O=P1(Nc2ccc(Br)cn2)COc2ccccc2OC1` the figure was inactive: 8%.
In the case of `O=P1(Nc2ccccn2)COc2ccccc2OC1`, the inhibition was inactive: 5%.
As to `Clc1n[nH]nc1-c1nn[nH][15n]1`, the inhibition is inactive: 23%.
Take `Cc1nc2ccc3ccccc3c2s1.O=[N+]([O-])c1cc([N+](=O)[O-])c(O)c([N+](=O)[O-])c1`: the inhibition was inactive: 8%.
Turning to `Cc1cccc(OCC(=O)OC2CN3CCC2CC3)c1` (configuration not stated), the inhibition is inactive: 8%.
On to `Cc1ccc(C)c(NP(C)(=O)Oc2ccccc2)c1` (configuration not stated), for which the inhibition was inactive: 14%.
As to `CCOP1(=S)c2c(C)nn(CCC#N)c2N=C(c2ccccc2F)N1C` (configuration not stated), the inhibition is inactive: 10%.
For `CCOP1(=S)c2c(C)nn(CCC#N)c2N=C(c2ccc(F)cc2)N1C` (configuration not stated), the inhibition was inactive: 15%.
On to `COC(=O)c1cc2c(s1)N=C(c1ccccc1)N(C)P2(=O)N1CCOCC1` (configuration not stated), for which the inhibition is inactive: 5%.
With `O=P1(Nc2nc3ccc(Cl)cc3s2)COc2ccccc2O1` (configuration not stated) the figure was inactive: 3%.
Turning to `CP(=O)(Nc1ccccc1F)Oc1ccccc1` (configuration not stated), the inhibition is inactive: 4%.
For the compound `O=P(Nc1nccs1)(c1ccccc1)c1ccccc1`, the inhibition was inactive: 10%.
On to `c1nnnn1CCn1cnnn1`, for which the inhibition was inactive: 4%.
Consider `CCOP(C)(=S)SCC(=O)NC(C)(CC)C(=O)O` (configuration not stated), for which the inhibition is inactive: 3%.
With `CP(=O)(Nc1ccc2c(c1)OCCO2)Oc1ccccc1` (configuration not stated) the figure was inactive: 4%.
Turning to `Cc1ccccc1NP(C)(=O)Nc1ccccc1C`, the inhibition was inactive: 10%.
`CN(C)CCOC(=O)C(O)(c1ccccc1)C1CCCCC1` (configuration not stated): the inhibition was inactive: 3%.
With `O=C(OC1CN2CCC1CC2)c1cccc(Cl)c1` (configuration not stated) the figure was inactive: 10%; with `CCN(CC)CC(O)COC(=O)C(O)(c1ccccc1)C1CCCCC1` (configuration not stated), inactive: 2%.
On to `CP(=O)(Oc1ccccc1)N1CCOC1=O` (configuration not stated), for which the inhibition is inactive: 14%.
With `CCc1nc2c(n1)c1c(non1O)c1c2no[n+]1[O-]`, the inhibition was inactive: 0%.
On to `COc1ccccc1OP(C)(=O)Nc1c(C)n(C)n(-c2ccccc2)c1=O` (configuration not stated), for which the inhibition is inactive: 2%.
Then `Cc1c2non([O-])c-2c(C)[n+](=O)[n+]1[O-]`, with inactive: 0%.
For the compound `CP(=O)(Nc1ccccn1)Oc1ccccc1` (configuration not stated), the inhibition is inactive: 0%.
As for `COc1ccccc1OP(C)(=O)Nc1ccc(C)c(C)c1` (configuration not stated), the inhibition was inactive: 3%.
Turning to `Cc1nc2ccc3ccccc3c2o1.O=[N+]([O-])c1cc([N+](=O)[O-])c(O)c([N+](=O)[O-])c1`, the inhibition is inactive: 9%.

As usually defined, the inhibition is the share of the control response that was lost under treatment.
